Columns and labels:
γ-secretase [1] = biological target: T1, γ-secretase (Homo sapiens, UniProt P49768); test: Screening for γ-secretase-modulating activity: Aβ42 in supernatant of SKNBE2 cells carrying hAPP 695 wild type (Alphalisa)
Procedure: (§1) Screening was carried out using SKNBE2 human neuroblastoma cells carrying the hAPP 695—wild type, grown in Dulbecco's Modified Eagle's Medium/Nutrient mixture F-12 (DMEM/NUT-mix F-12) (HAM) provided by Invitrogen (cat no. 10371-029) containing 5% Serum/Fe supplemented with 1% non-essential amino acids, 1-glutamine 2 mM, Hepes 15 mM, penicillin 50 U/ml (units/ml) en streptomycin 50 μg/ml. Cells were grown to near confluency.
(§2) The screening was performed using a modification of the assay as described in Citron et al (1997) Nature Medicine 3: 67. Briefly, cells were plated in a 384-well plate at 10^4 cells/well in Ultraculture (Lonza, BE12-725F) supplemented with 1% glutamine (Invitrogen, 25030-024), 1% non-essential amino acid (NEAA), penicillin 50 U/ml en streptomycin 50 μg/ml in the presence of test compound at different test concentrations. The cell/compound mixture was incubated overnight at 37° C., 5% CO2. The next day the media were assayed by two sandwich immuno-assays, for Aβ42 and Aβ total.
(§3) Aβtotal and Aβ42 concentrations were quantified in the cell supernatant using the Aphalisa technology (Perkin Elmer). Alphalisa is a sandwich assay using biotinylated antibody attached to streptavidin coated donorbeads and antibody conjugated to acceptor beads. In the presence of antigen, the beads come into close proximity. The excitation of the donor beads provokes the release of singlet oxygen molecules that trigger a cascade of energy transfer in the acceptor beads, resulting in light emission. To quantify the amount of Aβ42 in the cell supernatant, monoclonal antibody specific to the C-terminus of Aβ42 (JRF/cAβ42/26) was coupled to the receptor beads and biotinylated antibody specific to the N-terminus of Aβ (JRF/AβN/25) was used to react with the donor beads. To quantify the amount of Aβtotal in the cell supernatant, monoclonal antibody specific to the N-terminus of Aβ (JRF/AβN/25) was coupled to the receptor beads and biotinylated antibody specific to the mid region of Aβ (biotinylated 4G8) was used to react with the donor beads.
(§4) To obtain the values reported in Table 3, the data are calculated as percentage of the maximum amount of amyloid Beta 42 measured in the absence of the test compound. The sigmoidal dose response curves were analyzed using non-linear regression analysis with percentage of the control plotted against the log concentration of the compound. A 4-parameter equation was used to determine the IC50.

γ-secretase [2] = biological target: T1, γ-secretase; test: Screening for γ-secretase-modulating activity: Aβtotal in supernatant of SKNBE2 cells carrying hAPP 695 wild type (Alphalisa)
Procedure: as §1, §2, §3, §4

[3] = read-out: IC50 Aβ42, SKNBE2 human neuroblastoma cells carrying hAPP 695 wild type, overnight incubation, Aβ42 in cell supernatant
[4] = read-out: IC50 Aβtotal, SKNBE2 human neuroblastoma cells carrying hAPP 695 wild type, overnight incubation, Aβtotal in cell supernatant
[5] = read-out: IC50 Aβ42, SKNBE2 human neuroblastoma cells carrying hAPP 695 wild type, overnight incubation, Aβ42 in cell supernatant, tested form: hydrochloride
[6] = read-out: IC50 Aβtotal, SKNBE2 human neuroblastoma cells carrying hAPP 695 wild type, overnight incubation, Aβtotal in cell supernatant, tested form: hydrochloride

| SMILES | IC50 (γ-secretase [1]; [3]) [µM] | IC50 (γ-secretase [2]; [4]) [µM] | IC50 (γ-secretase [1]; [5]) [µM] | IC50 (γ-secretase [2]; [6]) [µM] |
| --- | --- | --- | --- | --- |
| Cc1cn(-c2ccc3n(c2=O)C[C@@H](c2ccccc2)N(Cc2ccc(Cl)c(Cl)c2)C3=O)cn1 | 1.62 | > 10 | – | – |
| Cc1cn(-c2ccc3n(c2=O)CCN(C(C)c2cc(C(F)(F)F)cc(C(F)(F)F)c2)C3=O)cn1 (stereo not shown) | 0.13 | > 10 | – | – |
| Cc1cn(-c2ccc3n(c2=O)CCN(CCc2ncc(-c4ccc(Cl)cc4)o2)C3=O)cn1 | 0.91 | > 6.03 | – | – |
| Cc1cn(-c2ccc3n(c2=O)C[C@@H](C)N(C(C)c2cc(F)cc(OC(F)(F)F)c2)C3=O)cn1 (single isomer, unassigned) [126] | – | – | 0.11 | > 10 |
| Cc1cn(-c2ccc3n(c2=O)CCN(C(C)c2ccc(Cl)c(Cl)c2)C3=O)cn1 (single isomer, unassigned) | 0.38 | > 10 | – | – |
| Cc1cn(-c2ccc3n(c2=O)C[C@@H](C)N(C(C)c2cc(F)cc(OC(F)(F)F)c2)C3=O)cn1 (single isomer, unassigned) [127] | – | – | 0.18 | > 10 |
| Cc1cn(-c2ccc3n(c2=O)C[C@@H](C)N(Cc2ccc(C)c(N4CCCCC4)c2)C3=O)cn1 | 0.07 | > 10 | – | – |
| Cc1cn(-c2ccc3n(c2=O)CC(C2CCOCC2)N(Cc2ccc(Cl)c(Cl)c2)C3=O)cn1 (stereo not shown) | 9.55 | 9.77 | – | – |
| Cc1cn(-c2ccc3n(c2=O)CCN(CC2(c4cccc(C(F)(F)F)c4Cl)CC2)C3=O)cn1 | 0.17 | > 10 | – | – |
| Cc1cn(-c2ccc3n(c2=O)C[C@@H](C)N(C(C)c2cc(F)cc(OC(F)(F)F)c2)C3=O)cn1 (single isomer, unassigned) [175] | – | – | 0.14 | > 10 |
| Cc1cn(-c2ccc3n(c2=O)C[C@@H](C)N(C(C)c2cc(Cl)cc(C(F)(F)F)c2)C3=O)cn1 (single isomer, unassigned) [129] | 0.11 | > 10 | – | – |
| Cc1cn(-c2ccc3n(c2=O)CCN(C(C)c2ccc(Cl)c(Cl)c2)C3=O)cn1 (racemic) | 0.68 | > 10 | – | – |
| Cc1cn(-c2ccc3n(c2=O)C[C@H](C)N(Cc2cc(C(F)(F)F)cc(C(F)(F)F)c2)C3=O)cn1 | 0.63 | > 10 | – | – |
| Cc1cn(-c2ccc3n(c2=O)C[C@@H](C(C)C)N(Cc2ccc(Cl)c(Cl)c2)C3=O)cn1 | 0.49 | > 10 | – | – |
